Experiments:
PI3Kβ = PI3Kβ (Homo sapiens, UniProt P42338); experiment: Assay 1: Fluorescent (HTRF) determination of PI3 kinase enzyme activity, PI3Kβ
Source text: (§1) Phosphoinositide 3 kinases (PI3K) belong to a class of lipid kinases that play a critical role in the regulation of several key cellular processes. The PI3K are capable of phosphorylating the 3-hydroxy position of phosphoinositols thereby generating second messengers involved in downstream signaling events. The homogenous time resolved fluorescence (HTRF) assay allows detection of 3,4,5-triphosphate (PIPS) formed as a result of phosphorylation of phosphotidylinositol 4,5-biphosphate (PIP2) by PI3K isoforms such as α, β, γ or δ.
(§2) PI3K isoform activity for α, β, γ or δ was determined using a PI3K human HTRF™ Assay Kit (Millipore, Billerica, Mass.) with modifications. All incubations were carried out at room temperature. 0.5 μl of 40× inhibitor (in 100% DMSO) or 100% DMSO were added to each well of a 384-well white plate (Greiner Bio-One, Monroe, N.C.) containing 14.5 μl 1× reaction buffer/PIP2 (10 mM MgCl2, 5 mM DTT, 1.38 μM PIP2) mix with or without enzyme, followed by 5 μl/well of 400 μM ATP and incubated for an additional 30 minutes. The reaction was terminated by adding 5 μl/well stop solution (Millipore, Billerica, Mass.). […] HRTF ratio was measured on a microplate reader (BMG Labtech., Germany) at an excitation wavelength of 337 nm and emission wavelengths of 665 and 615 nm with an integration time of 400 msec counting delay of 50 msec.

By UniProt entry, the sequences of proteins in these tests, tags left out. Where a name states a change or a piece, a line headed by the entry shows the natural chain unless it says otherwise.
UniProt P42338, whole entry: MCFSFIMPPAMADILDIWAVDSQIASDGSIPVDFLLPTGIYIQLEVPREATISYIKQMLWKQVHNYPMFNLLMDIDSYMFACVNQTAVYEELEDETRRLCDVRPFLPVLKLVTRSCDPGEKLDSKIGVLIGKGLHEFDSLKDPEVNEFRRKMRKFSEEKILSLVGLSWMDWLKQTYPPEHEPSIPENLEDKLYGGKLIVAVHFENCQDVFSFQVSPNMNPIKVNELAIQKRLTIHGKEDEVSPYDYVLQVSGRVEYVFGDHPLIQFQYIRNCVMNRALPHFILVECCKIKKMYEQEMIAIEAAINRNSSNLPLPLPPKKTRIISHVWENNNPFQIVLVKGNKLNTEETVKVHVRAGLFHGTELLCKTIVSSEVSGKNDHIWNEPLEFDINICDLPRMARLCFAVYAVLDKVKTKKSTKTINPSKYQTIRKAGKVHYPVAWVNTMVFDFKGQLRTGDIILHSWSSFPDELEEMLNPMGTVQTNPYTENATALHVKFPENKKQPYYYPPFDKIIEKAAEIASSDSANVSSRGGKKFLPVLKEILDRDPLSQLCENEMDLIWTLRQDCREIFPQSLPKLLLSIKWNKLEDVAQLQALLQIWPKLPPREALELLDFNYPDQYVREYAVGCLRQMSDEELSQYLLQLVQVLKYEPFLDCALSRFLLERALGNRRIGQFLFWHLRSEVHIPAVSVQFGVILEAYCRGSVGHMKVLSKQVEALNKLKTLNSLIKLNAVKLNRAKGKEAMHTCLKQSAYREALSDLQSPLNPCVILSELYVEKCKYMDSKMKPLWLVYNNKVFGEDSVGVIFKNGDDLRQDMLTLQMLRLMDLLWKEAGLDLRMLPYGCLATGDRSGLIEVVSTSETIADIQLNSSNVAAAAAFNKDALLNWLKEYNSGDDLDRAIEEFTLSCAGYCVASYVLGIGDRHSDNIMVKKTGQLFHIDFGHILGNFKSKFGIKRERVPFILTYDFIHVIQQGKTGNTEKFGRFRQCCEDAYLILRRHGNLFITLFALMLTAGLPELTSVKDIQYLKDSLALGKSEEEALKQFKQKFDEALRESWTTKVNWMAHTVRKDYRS
UniProt O00329, whole entry: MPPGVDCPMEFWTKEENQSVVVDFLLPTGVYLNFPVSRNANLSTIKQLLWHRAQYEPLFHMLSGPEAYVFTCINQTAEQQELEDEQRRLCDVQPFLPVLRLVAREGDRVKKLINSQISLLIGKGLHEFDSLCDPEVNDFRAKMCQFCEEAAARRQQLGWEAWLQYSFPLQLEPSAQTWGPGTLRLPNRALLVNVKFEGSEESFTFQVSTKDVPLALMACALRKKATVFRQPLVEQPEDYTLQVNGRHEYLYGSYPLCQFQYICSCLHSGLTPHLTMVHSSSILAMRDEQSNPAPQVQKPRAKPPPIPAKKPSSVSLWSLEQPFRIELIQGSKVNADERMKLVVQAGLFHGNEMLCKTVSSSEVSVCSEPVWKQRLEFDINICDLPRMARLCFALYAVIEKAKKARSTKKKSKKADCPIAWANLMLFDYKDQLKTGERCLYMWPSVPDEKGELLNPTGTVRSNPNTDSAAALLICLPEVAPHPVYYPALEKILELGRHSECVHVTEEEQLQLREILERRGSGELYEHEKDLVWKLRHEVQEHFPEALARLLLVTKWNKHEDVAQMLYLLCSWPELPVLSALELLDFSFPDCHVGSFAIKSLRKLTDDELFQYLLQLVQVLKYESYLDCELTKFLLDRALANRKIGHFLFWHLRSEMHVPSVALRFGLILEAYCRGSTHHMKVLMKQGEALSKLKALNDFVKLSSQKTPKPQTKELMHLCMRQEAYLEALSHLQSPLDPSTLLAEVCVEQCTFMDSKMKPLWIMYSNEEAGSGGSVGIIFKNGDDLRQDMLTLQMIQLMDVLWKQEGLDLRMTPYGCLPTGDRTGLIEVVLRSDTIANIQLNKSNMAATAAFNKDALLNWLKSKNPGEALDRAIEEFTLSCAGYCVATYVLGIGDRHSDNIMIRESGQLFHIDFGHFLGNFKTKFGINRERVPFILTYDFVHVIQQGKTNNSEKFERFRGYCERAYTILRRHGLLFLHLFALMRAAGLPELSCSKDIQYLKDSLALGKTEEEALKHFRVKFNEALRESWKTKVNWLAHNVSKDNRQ
UniProt P48736, whole entry: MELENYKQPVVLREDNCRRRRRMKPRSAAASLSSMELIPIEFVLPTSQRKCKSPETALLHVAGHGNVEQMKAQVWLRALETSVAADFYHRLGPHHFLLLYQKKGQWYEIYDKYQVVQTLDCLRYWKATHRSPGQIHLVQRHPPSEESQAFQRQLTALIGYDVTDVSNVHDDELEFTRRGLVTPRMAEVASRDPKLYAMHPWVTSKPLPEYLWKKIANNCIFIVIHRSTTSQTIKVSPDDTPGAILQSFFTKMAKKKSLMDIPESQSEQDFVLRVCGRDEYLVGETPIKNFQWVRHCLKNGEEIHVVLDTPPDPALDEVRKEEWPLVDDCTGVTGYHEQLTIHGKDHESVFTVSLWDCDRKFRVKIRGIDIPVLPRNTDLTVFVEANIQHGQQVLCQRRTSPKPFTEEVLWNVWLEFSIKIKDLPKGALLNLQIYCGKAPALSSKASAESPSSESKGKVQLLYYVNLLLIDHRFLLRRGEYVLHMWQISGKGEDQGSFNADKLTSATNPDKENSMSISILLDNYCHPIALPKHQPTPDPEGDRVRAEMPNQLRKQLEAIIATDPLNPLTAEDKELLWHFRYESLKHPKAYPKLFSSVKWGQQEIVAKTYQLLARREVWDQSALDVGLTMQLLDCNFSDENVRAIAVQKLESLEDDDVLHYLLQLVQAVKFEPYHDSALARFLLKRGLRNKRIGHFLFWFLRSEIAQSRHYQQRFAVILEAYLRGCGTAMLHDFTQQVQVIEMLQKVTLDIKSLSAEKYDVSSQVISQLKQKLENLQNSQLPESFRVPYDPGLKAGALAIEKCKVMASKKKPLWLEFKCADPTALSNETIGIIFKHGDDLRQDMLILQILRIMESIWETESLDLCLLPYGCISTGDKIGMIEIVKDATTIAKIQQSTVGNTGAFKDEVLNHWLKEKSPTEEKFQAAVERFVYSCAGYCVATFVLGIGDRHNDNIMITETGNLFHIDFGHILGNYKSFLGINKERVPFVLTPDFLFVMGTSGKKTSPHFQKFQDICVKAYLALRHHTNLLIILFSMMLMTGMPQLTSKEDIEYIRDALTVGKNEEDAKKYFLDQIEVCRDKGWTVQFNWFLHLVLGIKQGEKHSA
UniProt P42336, whole entry: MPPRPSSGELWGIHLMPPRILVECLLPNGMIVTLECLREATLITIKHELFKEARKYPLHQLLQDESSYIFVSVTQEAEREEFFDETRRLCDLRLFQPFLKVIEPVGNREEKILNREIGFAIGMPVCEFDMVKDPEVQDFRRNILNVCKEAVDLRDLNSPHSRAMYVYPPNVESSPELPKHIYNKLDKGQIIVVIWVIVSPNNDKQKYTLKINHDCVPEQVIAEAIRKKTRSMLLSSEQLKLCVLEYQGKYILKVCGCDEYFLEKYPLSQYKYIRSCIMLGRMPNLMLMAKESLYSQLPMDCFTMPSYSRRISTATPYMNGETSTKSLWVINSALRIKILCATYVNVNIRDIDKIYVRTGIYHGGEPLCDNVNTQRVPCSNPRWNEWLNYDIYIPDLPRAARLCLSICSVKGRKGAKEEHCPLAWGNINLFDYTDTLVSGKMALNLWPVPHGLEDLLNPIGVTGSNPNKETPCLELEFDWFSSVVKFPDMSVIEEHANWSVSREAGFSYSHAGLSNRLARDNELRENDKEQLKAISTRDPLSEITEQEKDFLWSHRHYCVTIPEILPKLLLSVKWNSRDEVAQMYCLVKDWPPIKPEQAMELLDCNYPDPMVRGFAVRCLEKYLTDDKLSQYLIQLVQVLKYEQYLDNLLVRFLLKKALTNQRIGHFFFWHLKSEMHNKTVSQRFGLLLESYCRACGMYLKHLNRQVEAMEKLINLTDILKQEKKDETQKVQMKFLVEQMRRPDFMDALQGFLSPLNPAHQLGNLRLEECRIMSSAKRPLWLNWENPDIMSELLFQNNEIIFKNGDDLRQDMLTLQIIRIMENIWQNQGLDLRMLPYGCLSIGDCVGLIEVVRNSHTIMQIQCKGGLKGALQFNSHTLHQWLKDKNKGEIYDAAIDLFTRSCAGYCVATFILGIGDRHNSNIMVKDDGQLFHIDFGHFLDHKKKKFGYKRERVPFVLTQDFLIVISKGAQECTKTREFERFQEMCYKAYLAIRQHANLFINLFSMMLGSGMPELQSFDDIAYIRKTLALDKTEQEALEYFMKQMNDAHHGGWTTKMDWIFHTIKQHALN
UniProt P27986, whole entry partner: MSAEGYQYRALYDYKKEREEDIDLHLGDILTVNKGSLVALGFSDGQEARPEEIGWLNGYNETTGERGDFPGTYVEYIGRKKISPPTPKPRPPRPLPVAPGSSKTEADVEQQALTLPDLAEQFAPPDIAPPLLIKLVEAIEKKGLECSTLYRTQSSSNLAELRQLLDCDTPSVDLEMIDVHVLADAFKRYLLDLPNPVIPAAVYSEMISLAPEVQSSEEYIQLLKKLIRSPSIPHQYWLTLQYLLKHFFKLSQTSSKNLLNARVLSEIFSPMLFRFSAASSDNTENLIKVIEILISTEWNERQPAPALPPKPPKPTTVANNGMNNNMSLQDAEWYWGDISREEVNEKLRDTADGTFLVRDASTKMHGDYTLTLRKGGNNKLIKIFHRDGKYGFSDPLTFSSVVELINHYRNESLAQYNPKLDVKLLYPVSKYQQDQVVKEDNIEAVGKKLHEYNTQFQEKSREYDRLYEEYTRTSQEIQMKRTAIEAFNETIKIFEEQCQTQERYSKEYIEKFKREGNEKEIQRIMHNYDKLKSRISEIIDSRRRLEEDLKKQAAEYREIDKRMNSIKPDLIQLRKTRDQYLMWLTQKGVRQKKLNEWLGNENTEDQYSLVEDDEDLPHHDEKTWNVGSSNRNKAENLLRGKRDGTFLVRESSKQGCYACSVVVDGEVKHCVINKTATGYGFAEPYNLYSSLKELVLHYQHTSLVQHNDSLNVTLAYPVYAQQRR

PI3Kδ = PI3Kδ (Homo sapiens, UniProt O00329); experiment: Assay 1: Fluorescent (HTRF) determination of PI3 kinase enzyme activity, PI3Kδ; conditions: read-out: IC50 (nM) PI3Kδ
Source text: as §1, §2

[1] = Oral pharmacokinetics in rats; conditions: Rat, 10 mg/kg
Procedure: The oral bioavailability of Compound A1 (free base) was evaluated in rats and mice. The protocol for the pharmacokinetics studies in rat is provided below.
All animals were fasted overnight (12 hours) before dosing and continued till 4.0 hours after administration of test item. Test item formulations were prepared in 1% Tween 80 and 99% media (0.5% Methyl cellulose, 4000cPs, pH 2.2). The blood samples (150 μL from each animal) were collected from the orbital sinus, and placed into a micro centrifuge tube containing disodium EDTA as an anticoagulant. Blood samples were centrifuged immediately with a speed of 1000 g for 10 min at 4° C. and separated plasma samples were frozen at below −80° C. and stored until analysis. The concentrations of test item in all formulations were analyzed by HPLC. The plasma concentrations of test item in all samples were analyzed by LC-MS/MS. Pharmacokinetic parameters (Cmax, AUC0-t, Tmax, and t^1/2) were estimated by using WinNonlin software. Results are provided in Table 3 for Compound A, A1, and Example 128 of WO 2012/151525 in rats and Compound A1 in mice.

[2] = Metabolic stability in rat liver microsomes; conditions: 1 μM test item, 60 minutes, 37° C., NADPH
Procedure: (§3) Metabolic stability studies were conducted on Compounds A, A1, and A2 as well as Example 128 of WO 2012/151525 using mouse, rat, dog, monkey, and human liver microsomes. The protocol for the studies with mouse, rat, and human liver microsomes (all from BD Gentest, USA) is provided below. 0.4 mg protein was preincubated with 2 mM NADPH (cofactor) in phosphate buffer (pH-7.4) for 15 minutes at 37° C. and then added with 1 μM test item and incubated further for 60 minutes in triplicate. The reaction mixture was terminated with methanol containing an internal standard and centrifuged further to analyze the test item remaining in the supernatant by LC-MS/MS. The percent parent compound remaining was calculated in comparison with similar samples terminated at 0 minutes.

[3] = Metabolic stability in mouse liver microsomes; conditions: 1 μM test item, 60 minutes, 37° C., NADPH
Procedure: as §3

[4] = Metabolic stability in human liver microsomes; conditions: 1 μM test item, 60 minutes, 37° C., NADPH
Procedure: as §3

PI3Kγ = PI3Kγ (Homo sapiens, UniProt P48736); experiment: Assay 1: Fluorescent (HTRF) determination of PI3 kinase enzyme activity, PI3Kγ; conditions: read-out: IC50 (nM) PI3Kγ
Source text: as §1, §2

PI3Kα = PI3Kα (Homo sapiens, UniProt P42336); experiment: Assay 1: Fluorescent (HTRF) determination of PI3 kinase enzyme activity, PI3Kα
Source text: as §1, §2

% inhibition @ 1 μM, PI3Kβ (PI3Kβ): NC (51.04*) %
IC50 (PI3Kδ): 76 nM
AUC0-t [1]: 2010 nM·h
Cmax [1]: 0.68 µM
Tmax [1]: 0.83 h
t1/2 [1]: 1.56 h
Metabolic stability in liver microsomes (percent parent compound remaining), Rat [2]: 73.3%
Metabolic stability in liver microsomes (percent parent compound remaining), Mouse [3]: 85.0%
Metabolic stability in liver microsomes (percent parent compound remaining), Human [4]: 70.4%
IC50 (PI3Kγ): 70.7 nM
% inhibition @ 1 μM, PI3Kα (PI3Kα): NC (38.29*) %
SMILES: CC(c1oc2cccc(F)c2c(=O)c1-c1cccc(F)c1)n1nc(-c2cccc(NS(C)(=O)=O)c2)c2c(N)ncnc21 (centres unmarked)

— patent US20190202836A1, “SELECTIVE DUAL INHIBITORS OF PI3 DELTA AND GAMMA PROTEIN KINASES” (Rhizen Pharmaceuticals SA, priority 2014, published 2019)
